The source of these data is US5216165A, “N-substituted aminoquinolines as analgesic agents” (American Home Products Corporation, priority 1992, dated 1993).

Protein sequences, listed by entry. Tags and fused reporters are not part of them.
UniProt O70526, whole entry, looked up: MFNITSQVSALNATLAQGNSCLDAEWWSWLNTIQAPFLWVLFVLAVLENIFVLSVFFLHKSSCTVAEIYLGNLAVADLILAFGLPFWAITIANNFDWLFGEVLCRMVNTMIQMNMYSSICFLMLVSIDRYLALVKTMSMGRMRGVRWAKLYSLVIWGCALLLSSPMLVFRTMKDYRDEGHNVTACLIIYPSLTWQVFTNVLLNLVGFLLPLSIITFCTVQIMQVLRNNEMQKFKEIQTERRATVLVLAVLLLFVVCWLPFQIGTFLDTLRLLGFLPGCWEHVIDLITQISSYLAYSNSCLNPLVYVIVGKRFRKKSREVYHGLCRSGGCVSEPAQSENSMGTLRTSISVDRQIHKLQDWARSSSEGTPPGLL

Test [1] has as its system bradykinin-induced writhing response. Kind of test: inhibition of the writhing response induced in mice by exogenous administration of bradykinin. In kind it is in vivo, mice (male CD-1). The settings on record: bradykinin 0.5 mg/kg i.p. after PGE2. A general note: An intraperitoneal irritant provokes the stretching counted in writhing tests.
Another test concerns the target BK2 receptor (Cavia porcellus, UniProt O70526). Description: competition with tritiated bradykinin (3H-BK) for BK2 receptor sites in guinea pig ileum. In kind it is binding. The settings on record: guinea pig ileum homogenate, 80 pM 3H-BK, 90 min, 25° C., pH 6.8.

For `CCCC(=O)N(Cc1ccc(Nc2ccnc3cc(Cl)ccc23)cc1)C1CCN(Cc2ccccc2)CC1`, in test [1], the “% Inhibition at 30 mg/kg i.p.” value was 37%. The IC50 at BK2 receptor is 2500 nM.

As a reminder, the % Inhibition is the percentage by which the read-out fell short of the control. A low value points to little suppression. For orientation: IC50 means the concentration needed to halve the response being measured. High values mean lower potency, low ones higher potency.
